Laboratory results from US20130012466A1 (priority 2006, published 2013).
“Also recorded” adds a separate entry of the source.

System: tubulin
Test: In vitro tubulin polymerization assay (fluorescence-based)
Type: biochemical
Set-up: key to tubulin polymeriz.: ‘D’ designates destabilizer; ‘S’ designates stabilizer
Conditions: for effect on tubulin polymerization / microtubules: tested in duplicate on at least two days

Row | Molecule | tubulin polymeriz. | effect on tubulin polymerization / microtubules | effect on tubulin polymerization / microtubules (listed as 1)
1 | 19-(N-METHOXYAMINO-N-22-DEOXY-D-RIBOSYL)COLCHICINE [Col21] | S | stabilizing; also recorded: stabilized the microtubules | 
2 | COc1cc2c(c(OC)c1OC)-c1ccc(OC)c(=O)cc1[C@@H](NC(C)=O)CC2 [colchicine, reference compound] | D | destabilized microtubules | destabilizing
